Consider two compounds from patent publication US11964962B2, “Substituted pyridazinone compound and use thereof” (SHANDONG FIRST MEDICAL UNIVERSITY & SHANDONG ACADEMY OF …, priority 2020, dated 2024).

Sequences of proteins named here, by UniProt entry; tags and fusion partners are left off. Residues count along the entry.
UniProt P10827, 1-410 isoform 2: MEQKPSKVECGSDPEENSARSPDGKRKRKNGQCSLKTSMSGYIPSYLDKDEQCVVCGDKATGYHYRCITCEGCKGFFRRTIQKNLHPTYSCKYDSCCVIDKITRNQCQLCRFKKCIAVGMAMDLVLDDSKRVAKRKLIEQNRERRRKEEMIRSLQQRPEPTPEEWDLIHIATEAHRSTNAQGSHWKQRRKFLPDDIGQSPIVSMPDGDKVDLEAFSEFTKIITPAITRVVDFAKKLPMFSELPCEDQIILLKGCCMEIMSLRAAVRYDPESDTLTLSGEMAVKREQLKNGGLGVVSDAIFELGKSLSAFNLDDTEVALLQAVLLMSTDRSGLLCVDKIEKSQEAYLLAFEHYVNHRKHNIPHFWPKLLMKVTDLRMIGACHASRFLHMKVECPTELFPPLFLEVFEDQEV
UniProt P10828, whole entry: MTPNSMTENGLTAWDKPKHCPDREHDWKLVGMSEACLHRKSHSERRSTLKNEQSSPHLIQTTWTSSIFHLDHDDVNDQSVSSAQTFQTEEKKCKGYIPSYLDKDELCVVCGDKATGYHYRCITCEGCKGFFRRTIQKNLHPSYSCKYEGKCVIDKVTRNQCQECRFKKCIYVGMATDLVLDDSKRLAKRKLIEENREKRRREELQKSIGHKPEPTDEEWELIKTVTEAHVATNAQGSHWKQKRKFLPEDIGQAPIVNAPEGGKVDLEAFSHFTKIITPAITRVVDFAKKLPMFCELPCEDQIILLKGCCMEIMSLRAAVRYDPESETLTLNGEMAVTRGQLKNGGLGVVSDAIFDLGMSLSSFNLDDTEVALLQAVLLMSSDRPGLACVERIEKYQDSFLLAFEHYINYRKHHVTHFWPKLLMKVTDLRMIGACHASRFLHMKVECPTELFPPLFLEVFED
UniProt P19793, 225-462 partner limits assumed: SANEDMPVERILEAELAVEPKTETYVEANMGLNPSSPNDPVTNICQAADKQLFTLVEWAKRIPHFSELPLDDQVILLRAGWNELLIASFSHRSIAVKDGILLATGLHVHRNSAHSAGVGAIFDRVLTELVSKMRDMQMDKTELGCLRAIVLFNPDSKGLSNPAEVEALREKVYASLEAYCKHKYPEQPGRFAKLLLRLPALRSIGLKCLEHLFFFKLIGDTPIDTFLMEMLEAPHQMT
UniProt Q15596, 679-703 partner limits assumed: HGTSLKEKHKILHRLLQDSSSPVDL

The target in one assay is THRα (Homo sapiens, UniProt P10827). The experiment in a line: THRα agonist activity, fluorescence ratio 665 nm/615 nm with EE-RxRα and biotin-GRIP. The format is biochemical. Conditions: read-out: EC50 of THRα; incubated overnight at 4° C.
Another assay concerns the target THRβ (Homo sapiens, UniProt P10828). The experiment in a line: THRβ agonist activity, fluorescence ratio 665 nm/615 nm with EE-RxRα and biotin-GRIP. The assay is classed as biochemical. The following applies: read-out: EC50 of THRβ; incubated overnight at 4° C.
In another assay the test system is L929 mouse fibroblasts. The experiment in a line: Cytotoxicity in normal cell line L929 (CCK-8 proliferation assay). The format is cell-based. Conditions: read-out: IC50 for proliferation of L929 cell lines; 48 h treatment, CCK-8, absorbance 450 nm.

On to `COc1cc(-n2nc(C#N)c(=O)[nH]c2=O)ccc1Oc1cc(CC(C)C)c(=O)[nH]n1`, for which the values for the EC50 on THRα and on THRβ were more than 60 µM and 0.0616 µM, respectively. In addition, in the assay with L929 mouse fibroblasts, the IC50 was more than 50 µM.
For `CC(C)Cc1cc(Oc2cc(Cl)c(-n3nc(C#N)c(=O)[nH]c3=O)cc2Cl)n[nH]c1=O`, the EC50 was found to be 0.003 µM on THRα and 17.6 µM at THRβ.
